{"sequences": {"note": "Sequences of proteins named here, by UniProt entry; tags and fusion partners are left off. A change or cut given only in a name is not applied to a line headed by its entry.", "UniProt Q02223": "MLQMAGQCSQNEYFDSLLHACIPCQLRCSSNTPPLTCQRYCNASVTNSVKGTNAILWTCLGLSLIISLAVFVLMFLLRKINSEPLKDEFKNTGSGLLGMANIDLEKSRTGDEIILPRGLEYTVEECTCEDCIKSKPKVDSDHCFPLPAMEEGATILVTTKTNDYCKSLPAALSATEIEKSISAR"}, "source": "patent US20220135678A1", "about": "“METHODS AND COMPOSITIONS TO IMPROVE THE SAFETY AND EFFICACY OF CELLULAR THERAPIES” (University of Southern California, priority 2019, published 2022)", "molecules": {"B1": {"name": "CD8SP-BCMA-huC12A3-L3H3-(vL-vH)-GGSG-NLuc-4×FLAG-×2STREP-8×His: secreted BCMA-NLuc fusion protein in 293FT supernatant, used to detect tBCMA (protein)", "chain": "MALPVTALLLPLALLLHAARPDIVLTQSPATLSLSPGDRATISCRASESVTILGSHLIYWYQQKPGQPPRLLIQLASNVQTGVPARFSGSGSRTDFTLTISSVEPEDFAVYYCLQSRTIPRTFGQGTKLEIKRGGGGSGGGGSGGGGSQVQLVQSGPEVKKPGESVKISCKASGYTFRHYSMNWVKQAPGQGLKWMGRINTESGVPIYADDFKGRFSFTVDTSASTAYLEISSLTSEDTAVYFCSNDYLYSLDFWGQGTTLTVSSTRGGSGVFTLEDFVGDWRQTAGYNLDQVLEQGGVSSLFQNLGVSVTPIQRIVLSGENGLKIDIHVIIPYEGLSGDQMGQIEKIFKVVYPVDDHHFKVILHYGTLVIDGVTPNMIDYFGRPYEGIAVFDGKKITVTGTLWNGNKIIDERLINPDGSLLFRVTINGVTGWRLCERILALEGGSWSHPQFEKDYKDDDDKGSDYKDDDDKGSDYKDDDDKGSDYKDDDDKAWSHPQFEKHHHHHHHHTSGSGEGRGSLLTCGDVEENPGPHMTEYKPTVRLATRDDVPRAVRTLAAAFADYPATRHTVDPDRHIERVTELQELFLTRVGLDIGKVWVADDGAAVAVWTTPESVEAGAVFAEIGPRMAELSGSRLAAQQQMEGLLAPHRPKEPAWFLATVGVSPDHQGKGLGSAVVLPGVEAAERAGVPAFLETSAPRNLPFYERLGFTVTADVEVPEGPRTWCMTRKPGA"}, "B2": {"name": "CD8SP-BCMA-ECD-GGSG-NLuc-4×Flag-2×Streptag-8×His: secreted BCMA-ECD NLuc fusion protein in 293FT supernatant for detection of BCMA CAR-T cells (protein)", "chain": "MALPVTALLLPLALLLHAARPFEMLQMAGQCSQNEYFDSLLHACIPCQLRCSSNTPPLTCQRYCNASVTNSVKGTNATRGGSGVFTLEDFVGDWRQTAGYNLDQVLEQGGVSSLFQNLGVSVTPIQRIVLSGENGLKIDIHVIIPYEGLSGDQMGQIEKIFKVVYPVDDHHFKVILHYGTLVIDGVTPNMIDYFGRPYEGIAVFDGKKITVTGTLWNGNKIIDERLINPDGSLLFRVTINGVTGWRLCERILALEGGSWSHPQFEKDYKDDDDKGSDYKDDDDKGSDYKDDDDKGSDYKDDDDKAWSHPQFEKHHHHHHHHTSGSGEGRGSLLTCGDVEENPGPHMTEYKPTVRLATRDDVPRAVRTLAAAFADYPATRHTVDPDRHIERVTELQELFLTRVGLDIGKVWVADDGAAVAVWTTPESVEAGAVFAEIGPRMAELSGSRLAAQQQMEGLLAPHRPKEPAWFLATVGVSPDHQGKGLGSAVVLPGVEAAERAGVPAFLETSAPRNLPFYERLGFTVTADVEVPEGPRTWCMTRKPGA"}}, "key": {"tBCMA": {"biological_target": "T1, tBCMA (Homo sapiens, UniProt Q02223)", "T1 construct": "CD8 signal peptide (N); expressed in transfected cells; host or cells: T cells transduced with a lentiviral vector", "T1 sequence (Q02223 with tags, fused parts or gaps)": "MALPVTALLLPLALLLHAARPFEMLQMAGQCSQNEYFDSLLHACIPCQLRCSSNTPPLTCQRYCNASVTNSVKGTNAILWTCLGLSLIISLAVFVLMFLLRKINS", "assay": "Detection of tBCMA on SIR-T cells by binding of secreted NLuc fusion protein (NLuc activity)", "settings": "100 μl 293FT supernatant, 2 washes, coelentrazine", "method": "T cells are infected with a lentiviral vector encoding a SIR targeting CD19 (SEQ ID NO: 3461) and coexpressing CD8SP-tBCMA (SEQ ID NO: 68) or GMCSF-SP-Q-tBCMA (SEQ ID NO: 69). The expression of the tBCMA on the transduced is detected by binding with the 293FT supernatant collected 48 hours after the transfection of the fusion construct CD8SP-BCMA-huC12A3-L3H3-(vL-vH)-GGSG-NLuc-4×FLAG-×2STREP-8×His (SEQ ID NO: 192). SIR-T cells are bound with 100 μl of supernatant containing the secreted BCMA-NLuc fusion protein and after 2 washes the NLuc activity is measured by addition of coelentrzine. […] The SIR-T cells are purified by immunostaining with a FITC-conjugated anti-human BCMA antibody and flow-sorting or by magnetic sorting using BCMA-antibody conjugated magnetic beads."}, "[1]": {"system": "BCMA specific CAR, SIR, TFP and Ab-TCR", "assay": "Topanga assay: binding of BCMA-ECD-NLuc fusion protein to T cells expressing BCMA specific CAR, TFP, SIR and Ab-TCR", "settings": "293FT supernatant bound 45 minutes on ice, 48 hours post-infection", "method": "T cells are activated using CD3/CD28 beads and infected with lentiviral vectors encoding BCMA specific CAR (SEQ ID NO: 1470), TFP (SEQ ID NO: 12186), SIR (SEQ ID NO: 3715) and Ab-TCR (SEQ ID NO: 4447). Forty-eight hours post-infection, the expression of BCMA specific CAR, SIR, TFP and Ab-TCR on the surface of T cells is detected using Topanga assay. For this purpose, 293FT supernatant containing secreted NLuc fusion protein collected 72 hours after transfection with the construct CD8SP-BCMA-ECD-GGSG-NLuc-4×Flag-2×Streptag-8×His (SEQ ID NO: 180) is bound to the lentiviral transduced T cells for 45 minutes on ice. Cells are washed twice with PBS and the bound NLuc activity is measured by addition of coelentrazine containing assay buffer. […] Essentially similar results are obtained when the CD8 signal peptide (CD8SP; SEQ ID NO: 15)) in the CD8SP-BCMA-ECD-GGSG-NLuc-4×Flag-2×Streptag-8×His construct (SEQ ID NO: 180) is replaced by GM-CSF signal peptide (SEQ ID NO: 14)."}}, "data": [{"molecule": "B1", "values": [{"measurement": "NLuc activity bound to SIR-T cells expressing tBCMA as compared to control T cells", "setting": "tBCMA", "value": "increase in NLuc activity"}]}, {"molecule": "B2", "values": [{"measurement": "bound NLuc activity on T cells expressing BCMA specific CAR, TFP, Ab-TCR and SIR as compared to control T cells or CD19-specific CAR T cells", "setting": "[1]", "value": "significant increase in NLuc activity"}]}]}
